Data: patent US10167295B2 (priority 2013, dated 2019)

Amino acid sequences for entries named in this document (tags omitted).
UniProt P41143, whole entry: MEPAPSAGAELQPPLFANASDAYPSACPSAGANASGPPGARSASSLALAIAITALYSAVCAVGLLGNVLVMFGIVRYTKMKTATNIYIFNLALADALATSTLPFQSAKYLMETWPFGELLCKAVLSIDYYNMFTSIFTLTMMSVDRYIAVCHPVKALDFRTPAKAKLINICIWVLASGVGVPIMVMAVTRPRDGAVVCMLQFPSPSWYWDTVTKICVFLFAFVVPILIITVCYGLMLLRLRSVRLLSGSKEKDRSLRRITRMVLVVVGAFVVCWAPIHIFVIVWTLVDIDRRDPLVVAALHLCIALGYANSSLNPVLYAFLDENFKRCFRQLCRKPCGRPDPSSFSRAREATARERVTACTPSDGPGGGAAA
UniProt P35372, whole entry: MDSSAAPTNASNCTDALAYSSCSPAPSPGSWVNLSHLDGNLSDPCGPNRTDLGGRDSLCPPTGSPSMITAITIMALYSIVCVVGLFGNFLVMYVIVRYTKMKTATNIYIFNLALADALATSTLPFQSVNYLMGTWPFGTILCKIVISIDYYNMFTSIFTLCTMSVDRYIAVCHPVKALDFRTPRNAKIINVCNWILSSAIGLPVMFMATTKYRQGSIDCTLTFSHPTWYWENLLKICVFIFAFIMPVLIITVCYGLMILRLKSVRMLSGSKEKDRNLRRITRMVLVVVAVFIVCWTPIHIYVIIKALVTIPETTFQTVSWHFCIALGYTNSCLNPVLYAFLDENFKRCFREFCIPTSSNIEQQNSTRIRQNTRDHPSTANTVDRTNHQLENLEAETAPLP
UniProt P41146, whole entry: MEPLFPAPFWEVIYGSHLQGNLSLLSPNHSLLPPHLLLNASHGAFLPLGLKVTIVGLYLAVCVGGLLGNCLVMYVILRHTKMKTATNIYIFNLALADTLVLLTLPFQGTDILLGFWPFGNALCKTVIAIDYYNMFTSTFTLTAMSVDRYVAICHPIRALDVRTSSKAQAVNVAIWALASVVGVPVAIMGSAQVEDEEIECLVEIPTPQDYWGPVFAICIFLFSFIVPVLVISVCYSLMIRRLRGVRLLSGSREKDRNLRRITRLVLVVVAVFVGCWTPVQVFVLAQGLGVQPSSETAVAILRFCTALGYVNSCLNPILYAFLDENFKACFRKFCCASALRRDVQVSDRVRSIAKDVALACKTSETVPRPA

Columns and labels:
DOR = DOR (Homo sapiens, UniProt P41143); assay: Primary binding (PDSP); settings: for DOR mean % inhibition: 10 μM, N = 4 determinations, negative = stimulation of binding; for DOR: Table 7, rounded values of Table 4
KOR [1] = biological target: T1, KOR (Homo sapiens, UniProt P41145); assay: Primary binding (PDSP); settings: for KOR mean % inhibition: 10 μM, N = 4 determinations, negative = stimulation of binding; for KOR: Table 7, rounded values of Table 4
MOR = MOR (Homo sapiens, UniProt P35372); assay: Primary binding (PDSP); settings: for MOR mean % inhibition: 10 μM, N = 4 determinations, negative = stimulation of binding; for MOR: Table 7, rounded values of Table 4
KOR [2] = biological target: T1, KOR; assay: Radioligand competition binding, Ki (PDSP); settings: read-out: KOR Ki
NOP = NOP (Homo sapiens, UniProt P41146); assay: Functional NOP agonism, Tango agonist assay; format: cell-based; settings: for NOP Tango Agonist: Table 7, values of Table 6; for NOP Tango Agonist, percent efficacy relative to cognate agonist: test compound at 10 micromolar
[3] = Cheng-Prusoff from best fit IC50

| Compound | DOR mean % inhibition (DOR) [%] | DOR (DOR) | KOR mean % inhibition (KOR [1]) [%] | KOR (KOR [1]) | MOR mean % inhibition (MOR) [%] | MOR (MOR) | Ki (KOR [2]; [3]) [nM] | Ki (KOR [2]; Table 7, values of Table 5) [nM] | NOP Tango Agonist (NOP) | NOP Tango Agonist, percent efficacy relative to cognate agonist (NOP) [%] |
| --- | --- | --- | --- | --- | --- | --- | --- | --- | --- | --- |
| O=C(N[C@H]1CCCC[C@@H]1N1CCCC1)C1CCCN1Cc1ccccc1 (some centres unmarked) | 31.7472 | 32 | 61 | 61 | 2.7 | 3 | 204 | 204 | −3.6 | −3.6 |
| CN(C(=O)C1CCCN1Cc1ccccc1)[C@H]1CCCC[C@@H]1N1CCCC1 (some centres unmarked) | −2.84 | −3 | 68.8 | 69 | 14.1 | 14 | 146 | 146 | −4.7 | −4.7 |

Where two headings read alike, the source gives them in different places. Some compounds may have been tested in ways that are not shown here.
